# [1] = median, MVC 150 mg QD with ATV/r 300/100 mg QD, Week 2, plasma, 15 patients
substance,measurement,setting,value
"N-{(1S)-3-[3-(3-isopropyl-5-methyl-4H-1,2,4-triazol-4-yl)-exo-8-azabicyclo[3.2.1]oct-8-yl]-1-phenylpropyl}-4, 4-difluorocyclohexanecarboxamide [maraviroc]",targeted MVC Cavg achieved by all 15 subjects,"MVC 150 mg QD with ATV/r, Week 2, all 15 subjects",≥ 75 ng/mL
same,AUC24,[1],4330 ng·h/mL
same,Cavg,[1],180 ng/mL
same,Cmax,[1],650 ng/mL
same,Cmin,[1],37.0 ng/mL

# Reference: patent US20130023496A1, “Combination Therapy Comprising A CCR5 Antagonist, A HIV-1 Protease Inhibtior and a Pharmacokinetic Enhancer” (priority 2010, published 2013)
